Target: mouse RFPL4, full-length (amino acid residues 1-287) (mouse) (UniProt Q8VH31)
Assay: yeast two-hybrid mating screen of the ovary cDNA library with pGBKT7-RFPL4 as bait

Lysosomal-associated protein 4 (LAPTM4A) (from UniProt Q60961 1-233)
# of clones: 1 clones

Reference: patent publication US20030144205A1
